Laboratory results reported in ChEMBL document CHEMBL1158408, “Large-scale application of high-throughput molecular mechanics with Poisson-Boltzmann surface area for routine physics-based scoring of protein-ligand complexes” (J Med Chem, 2009).

What was measured:
[1] = target: T1, Tyrosine-protein phosphatase non-receptor type 1 (Homo sapiens, UniProt P18031)
T1 sequence (P18031 whole entry): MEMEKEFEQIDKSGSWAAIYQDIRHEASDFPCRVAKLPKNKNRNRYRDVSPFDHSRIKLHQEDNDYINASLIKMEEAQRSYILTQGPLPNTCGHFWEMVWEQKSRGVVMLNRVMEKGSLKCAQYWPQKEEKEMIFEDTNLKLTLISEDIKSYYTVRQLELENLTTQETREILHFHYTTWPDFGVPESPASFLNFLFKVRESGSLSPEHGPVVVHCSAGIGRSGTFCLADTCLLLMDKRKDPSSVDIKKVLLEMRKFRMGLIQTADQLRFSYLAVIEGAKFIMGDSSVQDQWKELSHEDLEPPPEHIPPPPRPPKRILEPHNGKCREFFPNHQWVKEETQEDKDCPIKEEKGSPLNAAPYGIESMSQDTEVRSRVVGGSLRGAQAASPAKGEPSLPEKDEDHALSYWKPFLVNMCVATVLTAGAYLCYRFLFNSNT

[2] = target: Urokinase-type plasminogen activator (Homo sapiens, UniProt P00749)

| Ki [1] [µM] | Ki [2] [µM] | Structure (SMILES) |
| --- | --- | --- |
| 0.0126 | – | CCc1cc(CC(NC(C)=O)C(=O)NCCCCOc2cccc(O)c2C(=O)OC)ccc1N(C(=O)C(=O)O)c1ccccc1C(=O)O (centres undefined) |
| – | 0.126 | CC(C)C1=NCCc2ccc(C3CC3c3ccc4cc(C(=N)N)ccc4c3)cc21 (centres undefined) |
| 0.631 | – | CCCCCNC(=O)C(Cc1ccc(N(C(=O)C(=O)O)c2ccccc2C(=O)O)c2ccccc12)NC(C)=O (centres undefined) |
| – | 2 | COc1ccc2ccc(C(=N)N)cc2c1-c1ccco1 |
| 0.251 | – | CCCCCNC(=O)[C@H](Cc1ccc(N(C(=O)C(=O)O)c2ccccc2C(=O)O)c(/C=C/C(N)=O)c1)NS(C)(=O)=O |
| – | 0.398 | N=C(N)c1ccc2cc(C#Cc3ccc(CCN)cc3)ccc2c1 |
| – | 0.794 | N=C(N)c1ccc2cc(/C=C/c3ccc(C(O)CO)cc3)ccc2c1 (centres undefined) |
| – | 2 | N=C(N)c1ccc2cc(-c3ccc(N)cc3)ccc2c1 |
| – | 1.58 | COc1ccc2ccc(C(=N)N)cc2c1Nc1ccccc1 |
